# From ChEMBL document CHEMBL4808148, “HDAC6 screening dataset using tau-based substrate in an enzymatic assay yields selective inhibitors and activators” (2021)
# What follows is the remainder of the data, with few or none of the strong results.
# Biological target: T1, Protein deacetylase HDAC6 (Homo sapiens) (UniProt Q9UBN7)
# T1 sequence (whole entry): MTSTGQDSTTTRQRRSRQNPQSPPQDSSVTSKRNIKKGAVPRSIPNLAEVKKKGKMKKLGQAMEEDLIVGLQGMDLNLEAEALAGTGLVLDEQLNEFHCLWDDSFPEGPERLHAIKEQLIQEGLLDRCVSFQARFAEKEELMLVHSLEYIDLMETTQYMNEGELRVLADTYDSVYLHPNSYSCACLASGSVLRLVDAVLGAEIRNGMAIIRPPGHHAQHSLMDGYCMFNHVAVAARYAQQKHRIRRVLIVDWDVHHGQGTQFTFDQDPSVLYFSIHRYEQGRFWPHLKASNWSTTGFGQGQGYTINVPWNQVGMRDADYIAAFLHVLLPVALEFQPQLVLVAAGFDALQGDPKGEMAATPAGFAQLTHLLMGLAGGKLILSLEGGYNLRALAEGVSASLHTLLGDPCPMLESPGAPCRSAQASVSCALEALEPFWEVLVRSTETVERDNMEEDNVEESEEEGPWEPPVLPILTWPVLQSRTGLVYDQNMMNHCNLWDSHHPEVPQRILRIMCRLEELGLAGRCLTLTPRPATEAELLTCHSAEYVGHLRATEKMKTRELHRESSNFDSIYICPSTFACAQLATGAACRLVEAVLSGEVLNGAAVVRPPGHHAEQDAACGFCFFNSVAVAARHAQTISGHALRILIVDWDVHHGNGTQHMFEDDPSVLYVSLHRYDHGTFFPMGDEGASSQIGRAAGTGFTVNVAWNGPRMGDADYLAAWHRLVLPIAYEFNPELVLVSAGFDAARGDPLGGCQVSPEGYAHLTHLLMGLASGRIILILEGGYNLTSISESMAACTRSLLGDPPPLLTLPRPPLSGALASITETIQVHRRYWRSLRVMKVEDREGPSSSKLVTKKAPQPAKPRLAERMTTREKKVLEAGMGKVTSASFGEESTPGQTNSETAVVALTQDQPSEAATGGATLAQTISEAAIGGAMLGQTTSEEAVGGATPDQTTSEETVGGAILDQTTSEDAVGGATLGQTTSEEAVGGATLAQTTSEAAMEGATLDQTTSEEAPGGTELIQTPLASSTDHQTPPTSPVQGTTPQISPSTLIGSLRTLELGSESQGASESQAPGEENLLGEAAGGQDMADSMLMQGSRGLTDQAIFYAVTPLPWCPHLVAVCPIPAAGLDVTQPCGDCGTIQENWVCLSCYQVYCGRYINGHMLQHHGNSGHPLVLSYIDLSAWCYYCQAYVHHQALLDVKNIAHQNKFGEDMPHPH
# Settings: at 10 µM
row,SMILES,inhibition [%]
1,Clc1ccc(N2CCN(Cc3c[nH]c4ncccc34)CC2)cc1,0.96
